Test results: ChEMBL document CHEMBL1142831, “Identification of a potent non-hydroxamate histone deacetylase inhibitor by mechanism-based drug design” (Bioorg Med Chem Lett, 2005)

By UniProt entry, the sequences of proteins in these tests, tags left out. Where a name states a change or a piece, a line headed by the entry shows the natural chain unless it says otherwise.
UniProt Q13547: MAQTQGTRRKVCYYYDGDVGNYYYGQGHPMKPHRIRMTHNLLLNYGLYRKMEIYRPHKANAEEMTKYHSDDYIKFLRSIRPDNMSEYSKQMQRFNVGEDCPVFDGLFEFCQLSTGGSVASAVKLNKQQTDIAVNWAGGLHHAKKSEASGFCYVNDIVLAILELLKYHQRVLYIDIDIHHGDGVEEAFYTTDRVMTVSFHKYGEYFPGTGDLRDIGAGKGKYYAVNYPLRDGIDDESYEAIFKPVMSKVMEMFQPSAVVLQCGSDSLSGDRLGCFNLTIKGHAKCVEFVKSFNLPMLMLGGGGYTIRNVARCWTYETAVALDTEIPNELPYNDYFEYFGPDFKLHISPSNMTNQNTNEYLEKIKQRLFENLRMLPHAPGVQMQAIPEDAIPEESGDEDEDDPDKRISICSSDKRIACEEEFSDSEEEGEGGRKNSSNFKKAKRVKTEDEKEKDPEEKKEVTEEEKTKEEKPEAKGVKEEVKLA
UniProt O15379: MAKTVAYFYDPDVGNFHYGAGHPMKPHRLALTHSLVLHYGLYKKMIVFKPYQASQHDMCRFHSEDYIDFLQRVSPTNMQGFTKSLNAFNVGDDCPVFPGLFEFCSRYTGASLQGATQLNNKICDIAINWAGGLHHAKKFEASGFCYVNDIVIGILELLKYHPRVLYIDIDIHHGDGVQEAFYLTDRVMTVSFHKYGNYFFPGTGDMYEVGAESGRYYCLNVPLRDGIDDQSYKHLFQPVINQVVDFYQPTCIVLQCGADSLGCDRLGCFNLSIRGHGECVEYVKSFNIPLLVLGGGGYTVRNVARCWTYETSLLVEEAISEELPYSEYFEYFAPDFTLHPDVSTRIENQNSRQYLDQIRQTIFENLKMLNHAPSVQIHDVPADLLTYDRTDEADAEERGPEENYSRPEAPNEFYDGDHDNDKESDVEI
UniProt Q9UBN7: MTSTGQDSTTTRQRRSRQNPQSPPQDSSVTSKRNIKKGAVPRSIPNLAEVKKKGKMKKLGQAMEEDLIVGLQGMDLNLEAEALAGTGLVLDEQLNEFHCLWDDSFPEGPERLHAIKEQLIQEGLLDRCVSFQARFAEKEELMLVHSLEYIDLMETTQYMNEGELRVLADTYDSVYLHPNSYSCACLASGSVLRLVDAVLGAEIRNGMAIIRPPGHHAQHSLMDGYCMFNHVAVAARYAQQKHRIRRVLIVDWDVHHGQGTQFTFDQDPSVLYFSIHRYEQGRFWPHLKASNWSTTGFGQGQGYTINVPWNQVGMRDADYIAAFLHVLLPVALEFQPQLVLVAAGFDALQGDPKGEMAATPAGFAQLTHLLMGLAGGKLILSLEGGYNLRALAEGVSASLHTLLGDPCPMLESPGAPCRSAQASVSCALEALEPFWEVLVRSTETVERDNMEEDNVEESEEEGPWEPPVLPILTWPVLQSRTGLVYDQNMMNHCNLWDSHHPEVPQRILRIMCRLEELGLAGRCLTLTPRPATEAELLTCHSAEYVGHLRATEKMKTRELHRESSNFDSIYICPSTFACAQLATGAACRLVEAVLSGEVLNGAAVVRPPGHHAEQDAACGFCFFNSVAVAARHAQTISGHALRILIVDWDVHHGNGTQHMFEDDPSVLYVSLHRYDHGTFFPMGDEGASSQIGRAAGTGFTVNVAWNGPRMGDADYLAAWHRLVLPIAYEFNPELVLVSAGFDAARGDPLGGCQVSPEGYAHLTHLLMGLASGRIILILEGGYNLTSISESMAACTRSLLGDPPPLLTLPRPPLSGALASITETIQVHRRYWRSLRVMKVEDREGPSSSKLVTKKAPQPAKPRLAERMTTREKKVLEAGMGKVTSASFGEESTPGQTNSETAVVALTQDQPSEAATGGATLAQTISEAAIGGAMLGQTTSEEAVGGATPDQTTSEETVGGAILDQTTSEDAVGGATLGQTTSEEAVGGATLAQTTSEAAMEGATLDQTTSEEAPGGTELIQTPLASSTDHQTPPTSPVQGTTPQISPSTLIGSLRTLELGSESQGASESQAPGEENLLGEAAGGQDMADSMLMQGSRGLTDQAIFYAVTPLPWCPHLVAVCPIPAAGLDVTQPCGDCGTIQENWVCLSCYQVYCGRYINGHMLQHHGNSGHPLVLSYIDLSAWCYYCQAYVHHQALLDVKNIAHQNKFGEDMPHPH
UniProt Q8WUI4: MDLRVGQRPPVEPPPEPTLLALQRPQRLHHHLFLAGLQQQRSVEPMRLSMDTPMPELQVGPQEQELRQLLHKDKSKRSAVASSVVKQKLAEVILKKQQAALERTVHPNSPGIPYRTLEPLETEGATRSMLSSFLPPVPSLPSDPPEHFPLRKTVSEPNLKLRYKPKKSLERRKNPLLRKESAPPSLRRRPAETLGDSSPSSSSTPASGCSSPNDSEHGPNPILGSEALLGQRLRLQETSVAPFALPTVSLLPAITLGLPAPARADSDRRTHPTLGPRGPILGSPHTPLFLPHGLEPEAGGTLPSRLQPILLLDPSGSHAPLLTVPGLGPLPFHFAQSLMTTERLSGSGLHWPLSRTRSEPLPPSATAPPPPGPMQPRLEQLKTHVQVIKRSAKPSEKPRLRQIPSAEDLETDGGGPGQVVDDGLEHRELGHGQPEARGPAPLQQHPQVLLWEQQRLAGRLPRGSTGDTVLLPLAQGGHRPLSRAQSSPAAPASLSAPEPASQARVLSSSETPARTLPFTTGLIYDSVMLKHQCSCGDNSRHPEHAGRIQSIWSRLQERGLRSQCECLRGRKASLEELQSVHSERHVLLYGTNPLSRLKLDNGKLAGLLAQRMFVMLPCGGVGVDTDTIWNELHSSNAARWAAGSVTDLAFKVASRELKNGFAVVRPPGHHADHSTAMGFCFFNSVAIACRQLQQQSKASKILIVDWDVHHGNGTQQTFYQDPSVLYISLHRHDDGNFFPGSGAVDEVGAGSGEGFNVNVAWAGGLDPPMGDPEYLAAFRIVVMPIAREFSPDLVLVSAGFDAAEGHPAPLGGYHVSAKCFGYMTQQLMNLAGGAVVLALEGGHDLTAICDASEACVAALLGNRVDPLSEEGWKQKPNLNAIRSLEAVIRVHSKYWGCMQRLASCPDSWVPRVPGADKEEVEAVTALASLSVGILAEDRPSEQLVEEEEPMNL
UniProt Q9BY41: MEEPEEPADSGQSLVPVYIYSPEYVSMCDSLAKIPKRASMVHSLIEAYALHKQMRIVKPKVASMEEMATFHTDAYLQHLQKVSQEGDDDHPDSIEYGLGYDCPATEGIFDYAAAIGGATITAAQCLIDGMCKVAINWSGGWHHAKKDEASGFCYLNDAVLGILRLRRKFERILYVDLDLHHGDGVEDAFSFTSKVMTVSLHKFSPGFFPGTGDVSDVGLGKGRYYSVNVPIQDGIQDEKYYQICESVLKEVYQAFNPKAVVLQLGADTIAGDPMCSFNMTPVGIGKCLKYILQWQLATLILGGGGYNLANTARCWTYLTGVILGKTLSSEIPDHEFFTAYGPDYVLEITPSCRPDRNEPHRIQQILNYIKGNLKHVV
UniProt Q96DB2: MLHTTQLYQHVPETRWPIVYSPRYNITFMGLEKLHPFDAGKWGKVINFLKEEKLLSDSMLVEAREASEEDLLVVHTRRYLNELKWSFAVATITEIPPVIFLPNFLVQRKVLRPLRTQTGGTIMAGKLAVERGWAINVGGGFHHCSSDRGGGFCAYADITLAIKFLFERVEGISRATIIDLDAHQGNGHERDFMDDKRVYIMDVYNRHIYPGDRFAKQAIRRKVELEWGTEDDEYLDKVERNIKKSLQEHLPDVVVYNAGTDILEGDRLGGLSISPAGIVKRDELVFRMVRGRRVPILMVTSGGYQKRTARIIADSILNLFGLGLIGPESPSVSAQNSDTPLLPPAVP
UniProt P56524: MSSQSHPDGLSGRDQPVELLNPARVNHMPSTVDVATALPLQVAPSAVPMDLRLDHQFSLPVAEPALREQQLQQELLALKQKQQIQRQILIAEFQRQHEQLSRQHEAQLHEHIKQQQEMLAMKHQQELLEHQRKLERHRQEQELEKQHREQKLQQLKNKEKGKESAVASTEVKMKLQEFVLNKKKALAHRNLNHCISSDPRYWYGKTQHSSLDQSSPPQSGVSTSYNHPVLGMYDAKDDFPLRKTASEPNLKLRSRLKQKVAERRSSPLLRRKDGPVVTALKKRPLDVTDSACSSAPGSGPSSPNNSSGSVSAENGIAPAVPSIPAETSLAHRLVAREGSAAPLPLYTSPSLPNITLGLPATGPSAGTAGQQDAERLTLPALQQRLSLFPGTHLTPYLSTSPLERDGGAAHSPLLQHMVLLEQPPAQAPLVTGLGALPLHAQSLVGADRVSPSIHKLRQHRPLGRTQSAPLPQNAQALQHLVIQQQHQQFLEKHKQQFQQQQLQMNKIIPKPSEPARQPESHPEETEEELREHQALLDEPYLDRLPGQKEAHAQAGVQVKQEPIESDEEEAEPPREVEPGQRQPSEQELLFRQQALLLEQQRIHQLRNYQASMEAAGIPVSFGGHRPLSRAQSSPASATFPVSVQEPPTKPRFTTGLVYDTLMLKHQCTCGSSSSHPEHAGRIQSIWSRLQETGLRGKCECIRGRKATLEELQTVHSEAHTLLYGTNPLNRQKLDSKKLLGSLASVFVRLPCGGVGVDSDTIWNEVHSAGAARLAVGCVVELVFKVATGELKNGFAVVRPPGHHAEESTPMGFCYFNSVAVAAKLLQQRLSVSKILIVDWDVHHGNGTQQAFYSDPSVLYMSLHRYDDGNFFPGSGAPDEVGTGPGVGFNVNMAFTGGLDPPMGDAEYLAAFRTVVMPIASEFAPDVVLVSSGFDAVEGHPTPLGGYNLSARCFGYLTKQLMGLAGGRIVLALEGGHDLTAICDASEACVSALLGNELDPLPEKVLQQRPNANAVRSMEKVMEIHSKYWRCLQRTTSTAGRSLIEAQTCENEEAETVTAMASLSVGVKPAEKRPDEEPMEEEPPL
UniProt Q9UKV0: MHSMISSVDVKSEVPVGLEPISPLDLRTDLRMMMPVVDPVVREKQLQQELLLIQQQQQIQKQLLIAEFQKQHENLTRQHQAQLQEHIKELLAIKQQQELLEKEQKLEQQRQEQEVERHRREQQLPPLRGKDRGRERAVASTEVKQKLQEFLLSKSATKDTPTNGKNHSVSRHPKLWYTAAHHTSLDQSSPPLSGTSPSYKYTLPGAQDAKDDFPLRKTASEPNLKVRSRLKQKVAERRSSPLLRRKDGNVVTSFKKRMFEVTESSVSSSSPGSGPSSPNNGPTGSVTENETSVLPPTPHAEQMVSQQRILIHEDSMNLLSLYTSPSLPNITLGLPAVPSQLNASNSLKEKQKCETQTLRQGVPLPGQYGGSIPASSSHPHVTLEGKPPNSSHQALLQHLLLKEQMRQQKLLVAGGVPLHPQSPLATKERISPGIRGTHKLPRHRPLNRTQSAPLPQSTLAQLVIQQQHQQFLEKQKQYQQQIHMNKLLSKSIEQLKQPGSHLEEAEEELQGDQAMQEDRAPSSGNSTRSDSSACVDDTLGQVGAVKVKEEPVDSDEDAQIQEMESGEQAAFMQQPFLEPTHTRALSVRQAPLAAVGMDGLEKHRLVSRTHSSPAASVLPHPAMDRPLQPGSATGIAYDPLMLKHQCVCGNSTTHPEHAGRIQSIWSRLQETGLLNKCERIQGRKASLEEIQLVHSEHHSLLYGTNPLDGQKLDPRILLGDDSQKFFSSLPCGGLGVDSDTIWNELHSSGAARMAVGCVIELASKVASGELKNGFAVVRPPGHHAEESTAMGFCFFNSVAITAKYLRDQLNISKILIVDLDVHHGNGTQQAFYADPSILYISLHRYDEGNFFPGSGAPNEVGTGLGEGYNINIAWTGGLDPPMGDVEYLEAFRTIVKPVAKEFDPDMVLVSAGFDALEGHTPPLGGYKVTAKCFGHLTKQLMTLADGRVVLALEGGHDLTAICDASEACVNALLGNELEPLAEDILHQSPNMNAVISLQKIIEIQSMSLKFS
UniProt Q969S8: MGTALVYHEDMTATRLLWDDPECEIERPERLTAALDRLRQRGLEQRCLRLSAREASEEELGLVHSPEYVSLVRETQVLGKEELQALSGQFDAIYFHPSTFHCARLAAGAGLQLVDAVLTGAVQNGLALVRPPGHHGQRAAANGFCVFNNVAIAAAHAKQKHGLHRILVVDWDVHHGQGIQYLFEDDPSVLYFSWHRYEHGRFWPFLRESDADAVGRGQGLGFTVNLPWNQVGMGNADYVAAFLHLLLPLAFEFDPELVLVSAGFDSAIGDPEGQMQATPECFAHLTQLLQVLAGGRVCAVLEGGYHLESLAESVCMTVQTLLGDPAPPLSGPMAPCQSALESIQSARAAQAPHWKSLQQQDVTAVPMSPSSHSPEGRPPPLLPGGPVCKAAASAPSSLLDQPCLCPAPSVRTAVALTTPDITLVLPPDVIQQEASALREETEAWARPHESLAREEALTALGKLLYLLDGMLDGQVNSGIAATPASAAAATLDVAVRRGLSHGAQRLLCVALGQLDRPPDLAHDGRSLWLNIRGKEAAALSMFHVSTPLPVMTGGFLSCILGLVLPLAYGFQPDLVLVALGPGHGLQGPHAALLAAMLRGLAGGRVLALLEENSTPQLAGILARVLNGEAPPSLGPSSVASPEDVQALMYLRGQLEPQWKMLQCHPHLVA

Biological target: Histone deacetylase (Homo sapiens) (UniProt Q13547+O15379+Q9UBN7+Q92769+Q9UQL6+Q8WUI4+Q9BY41+Q96DB2+P56524+Q9UKV0+Q969S8)
Details: HeLa, at 100 µM

Structure (SMILES)	inhibition [%]
O=C(CO)NCCCCCC(=O)Nc1ccccc1	0
NCC(=O)NCCCCCC(=O)Nc1ccccc1	6
